Data reported in patent publication US12329799B2, “Peptidyl inhibitors of calcineurin-NFAT interaction” (Ohio State Innovation Foundation, priority 2018, dated 2025).

Assay: Caco-2 permeability assay
Settings: human, Caco-2, pH 7.4

- Papp A→B at 90 min, 10 μM: 15.5 ×10⁻⁶ cm/s
- Papp B→A at 90 min, 10 μM: 49.6 ×10⁻⁶ cm/s
- efflux ratio at 90 min, 10 μM: 3.2
Compound: CC(C)CN(C[C@@H](O)[C@H](Cc1ccccc1)NC(=O)O[C@H]1CCOC1)S(=O)(=O)c1ccc(N)cc1 [Amprenavir]
